Inhibition data for 69 molecules are collected here from PubChem BioAssay AID951 (NMMLSC, 2007).

Amino acid sequences for entries named in this document (tags omitted).
UniProt Q9HD36, whole entry: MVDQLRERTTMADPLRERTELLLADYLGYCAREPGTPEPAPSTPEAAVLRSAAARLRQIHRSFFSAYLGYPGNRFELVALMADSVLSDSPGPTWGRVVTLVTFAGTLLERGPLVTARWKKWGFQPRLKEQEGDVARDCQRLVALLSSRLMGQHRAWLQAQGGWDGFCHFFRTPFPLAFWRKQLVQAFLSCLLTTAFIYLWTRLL

As a reminder, the inhibition is the change of the read-out against control, counted positive when it falls.

Only a part is listed here, and it is no random draw. Activity calls are given as the source filed them. Rule as the data show it: active = inhibition above about 40%.

The assay has as its target Bcl-2-like protein 10 (Homo sapiens) (UniProt Q9HD36). Put plainly: inhibitors of Bim-Bcl-B binding, primary screen, biochemical, multiplexed, human Bcl-2 family (AID 951).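 Also: 0% = tracer peptide without compound and 100% = reference inhibitor peptide.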 Particulars: bead-based flow cytometry, Bim peptide-Bcl-B binding; at 10 µM; active compounds read high. A general note: Flow cytometry measures light scatter and fluorescence of single cells or particles in a stream.
`O=[N+]([O-])c1cc([N+](=O)[O-])c(-n2nnc3ccccc32)c([N+](=O)[O-])c1`: the inhibition was inactive: -7%.
Consider `Cc1nc2ccc3ccccc3c2s1.O=[N+]([O-])c1cc([N+](=O)[O-])c(O)c([N+](=O)[O-])c1`, for which the inhibition was inactive: -8%.
On to `COc1ccccc1OP(C)(=O)Nc1c(C)cccc1C` (centres undefined), for which the inhibition is inactive: 0%.
Under `CN1CCCCC1COC(=O)C1(O)c2ccccc2CCc2ccccc21` (centres undefined) stands inactive: -10%; under `CCCOc1ccc(NP(C)(=O)Oc2ccc(Cl)cc2)cc1` (centres undefined), inactive: -5%.
In the case of `CP(=O)(Nc1ccc(SC(F)(F)F)cc1)Oc1ccccc1` (centres undefined) it was inactive: -8%; in that of `CC1=NCCc2c1[nH]c1ccccc21.O=[N+]([O-])c1cc([N+](=O)[O-])c(O)c([N+](=O)[O-])c1`, inactive: -2%; in that of `CCOC(=O)c1ccc(NP(C)(=O)Oc2cc(C)cc(C)c2)cc1` (centres undefined), inactive: 0%.
In the case of `Cc1cc(C)cc(OP(C)(=O)Nc2ccc(C)cc2C)c1` (centres undefined) it was inactive: -4%.
For `Cc1ccc(C)c(NP(C)(=O)Oc2ccccc2)c1` (centres undefined), the inhibition is inactive: -5%.
Under `Cc1cc(C)cc(OP(C)(=O)Nc2ccccn2)c1` (centres undefined) stands inactive: -12%; under `CP(=O)(Nc1cccc(Br)c1)Oc1ccccc1` (centres undefined), inactive: 0%; under `CCN(CC)CCCOC(=O)C(O)(c1ccccc1)c1ccccc1`, inactive: -1%.
Regarding `O=[N+]([O-])c1ccc2c(c1)C=Nc1ccccc1O2`, the inhibition is inactive: -4%.
On to `Cc1cccc(C)c1OP(C)(N)=O` (centres undefined), for which the inhibition was inactive: -2%.
Under `CC(C)(C)c1ccc(OP(C)(=O)Nc2ccc(SC(F)(F)F)cc2)cc1` (centres undefined) stands inactive: -4%.
In the case of `Cc1ccc(NP(C)(=O)Oc2ccccc2)c(C)c1` (centres undefined) it was inactive: -5%.
Under `COc1ccccc1OP(C)(=O)Nc1ccc(C)cc1` (centres undefined) stands inactive: 7%; under `CCOC(=O)c1ccc(NP(C)(=O)Oc2ccccc2)cc1` (centres undefined), inactive: -7%.
For the molecule `Cc1cc(C)cc(OP(C)(N)=O)c1` (centres undefined), the inhibition was inactive: -2%.
In the case of `COc1ccc(OP(C)(=O)Nc2cccc(F)c2)cc1` (centres undefined) it was inactive: 1%; in that of `COc1ccccc1OP(C)(=O)Nc1cc(Cl)ccc1C` (centres undefined), inactive: 0%; in that of `CP(=S)(Nn1cnnc1)Oc1ccccc1` (centres undefined), inactive: -4%.
In the case of `CP(=O)(Nc1ccccc1Br)Oc1ccccc1` (centres undefined) it was inactive: 0%; in that of `COc1ccccc1OP(C)(=O)Nc1ccccc1` (centres undefined), inactive: -3%; in that of `CP(=O)(Oc1ccccc1)OC(c1ccccc1)C(F)(F)F` (centres undefined), inactive: -5%.
Under `Cc1cccc(C)c1OP(C)(=O)Nc1ccc(SC(F)(F)F)cc1` (centres undefined) stands inactive: 7%; under `Cc1cc(C)cc(OP(C)(=O)Nc2ccc(SC(F)(F)F)cc2)c1` (centres undefined), inactive: 8%.
For the molecule `CP(=O)(NC(=O)Nc1ccccc1)Oc1ccccc1` (centres undefined), the inhibition was inactive: -2%.
Under `CCOC(=O)c1ccc(NP(C)(=O)Oc2ccc(OC)cc2)cc1` (centres undefined) stands inactive: -14%.
Turning to `CCOP(C)(=S)SCC(=O)NC(C)C(=O)O` (centres undefined), the inhibition was inactive: 2%.
Under `CP(=O)(Nc1ccccn1)Oc1ccc(Cl)cc1` (centres undefined) stands inactive: 1%; under `COc1ccc(OP(C)(=O)Nc2ccc(Br)cc2)cc1` (centres undefined), inactive: -7%; under `CCN(CC)CC(O)COC(=O)C(O)(c1ccccc1)C1CCCCC1` (centres undefined), inactive: -6%.
Under `CCc1ccc(OP(C)(=O)Nc2cccnc2)cc1` (centres undefined) stands inactive: 0%; under `CP(=O)(Oc1ccccc1)N1CCOC1=O` (centres undefined), inactive: -3%; under `COc1ccccc1OP(C)(=O)Nc1ccccc1Br` (centres undefined), inactive: -5%.
In the case of `CC(C)(C)c1ccc(OP(C)(=O)O)cc1`, the inhibition was inactive: 1%.
On to `CP(=O)(Nc1ccc(Cl)cc1)Oc1ccc(F)cc1` (centres undefined), for which the inhibition was inactive: 0%.
In the case of `CN(C)C(=O)c1c([N+](=O)[O-])cc([N+](=O)[O-])cc1[N+](=O)[O-]` it was inactive: 0%; in that of `CCOC(=O)c1ccc(NP(C)(=O)Oc2ccc(Cl)cc2)cc1` (centres undefined), inactive: -5%; in that of `CP(=O)(OC12CC3CC(CC(C3)C1)C2)OC12CC3CC(CC(C3)C1)C2`, inactive: -10%.
In the case of `Cc1cc(C)cc(OP(C)(=O)Nc2cccc(C(F)(F)F)c2)c1` (centres undefined) it was inactive: 0%; in that of `COc1ccccc1OP(C)(=O)Nc1ccc(C)c(C)c1` (centres undefined), inactive: -3%.
Under `COc1ccc(OP(C)(=O)Nc2ccccc2Br)cc1` (centres undefined) stands inactive: -1%.
Take `Cc1nc2ccc3ccccc3c2o1.O=[N+]([O-])c1cc([N+](=O)[O-])c(O)c([N+](=O)[O-])c1`: the inhibition is inactive: 0%.
In the case of `CP(=O)(Nc1ccc(Cl)cc1Cl)Oc1ccccc1` (centres undefined) it was inactive: -4%.
In the case of `CP(=O)(OCCOc1ccccc1)OCCOc1ccccc1` it was inactive: -4%; in that of `COc1ccc(OP(C)(=O)Nc2ccccn2)cc1` (centres undefined), inactive: -4%.
Under `CN(C)CCOC(=O)C(O)(c1ccccc1)C1CCCC1` (centres undefined) stands inactive: -4%; under `Cc1c(NP(C)(=O)Oc2ccc(C(C)C)cc2)c(=O)n(-c2ccccc2)n1C` (centres undefined), inactive: 0%; under `O=[N+]([O-])c1cc([N+](=O)[O-])c(Nc2ccccn2)c([N+](=O)[O-])c1`, inactive: -6%.
Consider `COc1ccccc1OP(C)(=O)Nc1ccc(C)cc1C` (centres undefined), for which the inhibition is inactive: -5%.
For the molecule `CP(=O)(Nc1ccccn1)Oc1ccccc1` (centres undefined), the inhibition is inactive: -6%.
In the case of `CCc1ccc(OP(C)(=O)O)cc1` it was inactive: 2%.
Under `CP(=O)(Nc1ccccc1F)Oc1ccccc1` (centres undefined) stands inactive: -5%; under `CC(C)c1ccc(OP(C)(=O)Nc2ccc(SC(F)(F)F)cc2)cc1` (centres undefined), inactive: -12%; under `O=C(OCCN1CCN(CCOCc2ccccc2)CC1)C(O)(c1ccccc1)c1ccccc1`, inactive: -3%.
In the case of `CCOC(=O)c1ccc(NP(C)(=O)Oc2ccc(F)cc2)cc1` (centres undefined) it was inactive: -11%; in that of `COc1ccc(OP(C)(=O)Nc2ccc(SC(F)(F)F)cc2)cc1` (centres undefined), inactive: -2%.
Turning to `CCN(CC)CCCOC(=O)C(O)(c1ccccc1)C1CCCCC1` (centres undefined), the inhibition was inactive: -4%.
Under `CP(=O)(Nc1ccccc1)Oc1ccc(F)cc1` (centres undefined) stands inactive: -3%; under `COc1ccc(OP(C)(=O)Nc2cccc(Br)c2)cc1` (centres undefined), inactive: -6%.
Consider `CN(C)CCOC(=O)C(O)(c1ccccc1)C1CCCCC1` (centres undefined), for which the inhibition is inactive: -2%.
Under `COc1ccc(NP(C)(=O)Oc2ccccc2OC)cc1` (centres undefined) stands inactive: -1%.
In the case of `O=[N+]([O-])c1cc([N+](=O)[O-])c(NCC2CCS(=O)(=O)C2)c([N+](=O)[O-])c1` (centres undefined) it was inactive: -3%; in that of `CCOP(C)(=S)SCC(=O)NC(C)(CC)C(=O)O` (centres undefined), inactive: -10%; in that of `CP(=O)(Nc1ccc2c(c1)OCCO2)Oc1ccccc1` (centres undefined), inactive: 2%.
Under `Cc1ccccc1NP(C)(=O)Nc1ccccc1C` stands inactive: -7%.
